In US20090075898A1 (YEDA RESEARCH AND DEVELOPMENT CO LTD AT THE WEIZMANN …, published 2009):
Values belong to the binder of their own block, whether it stands above or below them. Ends that are not written are not given here. * marks the point of attachment. Biotin = O=C1N[C@H]2[C@H](CS[C@H]2CCCCC(=O)*)N1

Legend:
[1] = molecular target: T1, human complement component C3a (human, UniProt P01024 672-748); experiment: SPR (BIACORE 2000), peptide on streptavidin chip, C3a as analyte
T1 construct: also called Human C3a; complement-derived peptide C3a

C5a = molecular target: T2, C5a (UniProt P01031 678-751); experiment: SPR (BIACORE 2000), peptide on streptavidin chip, C5a as analyte
T2 construct: domain: C5a; Control analyte in SPR
T2 sequence (looked up): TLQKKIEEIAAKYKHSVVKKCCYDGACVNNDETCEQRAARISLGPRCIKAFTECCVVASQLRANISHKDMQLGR

[2] = molecular target: T1, human complement component C3a; experiment: SPR (BIACORE 2000): biotinylated 1st extracellular loop peptide of the rat FcεRI β chain on a streptavidin chip, C3a injected as analyte at 5 concentrations
[3] = molecular target: T1, human complement component C3a; experiment: SPR (BIACORE 2000), biotinylated peptide on streptavidin chip, C3a as analyte; Kd = koff/kon from kobs plots; first extracellular loop of the rat protein

binding result [1]: no binding
binding result (C5a): no binding
B1: biotinylated peptide of the 2nd extracellular loop of the rat FcεRI β chain (peptide)
peptide: Biotin-NNSAYMNYCKDITEDDGCFVTS
modifications: cysteine pairing not given here
notes: also called second extracellular loop of rat FcεRI β-chain

Kd [2]: 0.25 µM
Kd [3]: 0.52 µM
binding result (C5a): no binding
B2: biotinylated peptide of the 1st extracellular loop of the rat FcεRI β chain (peptide)
peptide: Biotin-STLQTSDFDDEVLLLYRAGYPF
notes: also called first extracellular loop of rat FcεRI β-chain
